# Antibody variant affinities, Ab-14 heavy chain, assay B

The target is the same throughout: PDVDLGDISGINAS, from the HR2 region of SARS-CoV-2 spike.

Parent scFv Ab-14: VH joined to VL by a (GGGGS)3 linker. Changes lie in the heavy chain CDRs alone.
VH: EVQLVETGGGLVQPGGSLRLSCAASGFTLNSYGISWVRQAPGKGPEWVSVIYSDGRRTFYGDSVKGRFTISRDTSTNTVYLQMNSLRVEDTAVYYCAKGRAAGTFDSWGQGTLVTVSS
VL: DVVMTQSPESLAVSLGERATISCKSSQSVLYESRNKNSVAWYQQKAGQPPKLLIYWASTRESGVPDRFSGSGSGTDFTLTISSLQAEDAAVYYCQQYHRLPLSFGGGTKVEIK

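Designed CDR sequences, proposed from the first random library and measured here. Group labels follow the data file (Ctrl: baseline library sampled from a position-specific scoring matrix, with some repeated check sequences; Rand: our label for a block that the file lists under HC and that is probably the random mutants of the ten best first-round binders; En: ensemble of fine-tuned language models; HC: hill climbing; Gen: genetic algorithm; Gibbs: Gibbs sampling; a sequence that several methods proposed may carry one label only). AlphaSeq pools MATa yeast showing the antibodies with MATalpha yeast showing the peptide. Pairs that bind mate more often; barcode pairs of the diploids are counted by sequencing. Each replicate has its own calibration line, from reference interactions of the BCL2 family. Each pool was mated in six replicate cultures.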

Variants are written as CDR1, CDR2 and CDR3 of the heavy chain (limits as in the source). Parent: GFTLNSYGIS, VIYSDGRRTFYGDSVK, GRAAGTFDS. Variants here have more than six changes. Kd is apparent (estimated from mating counts) and averaged on the log scale over replicates with a signal. Smaller is tighter. An entry "nd" has no value in the source: the pair was not observed among the diploids in any replicate. This suggests poor binding but is not conclusive. Values of this round are not directly comparable with the first-round values of the same sequences. Nonspecific signal, from three strains lacking the peptide, appeared in 1% of pairings of all heavy chain designs, centred on 120 nM (5% of these signals below 7.0 nM); values are not corrected for it. For each scFv, signals with the empty controls are counted beside the result. The parent sequence was in this pool as ten entries: three were never detected, three once, and four in most replicates, with averages from 2.2 nM to 240 nM. In the paper, a design with two or fewer of six values counts as a poor binder.

- GYDIQEYGIS | VIYADGVRVAYHDSVK | GQTAGFFLL [En_Gibbs]: nd (0 of 6 replicates; controls 0 of 18)
- GFDLDEYGIS | VIYADGMRTAYADDVK | GTNAGTFDL [En_Gen]: 1.0 nM (6 of 6 replicates; controls 0 of 18)
- GFDLENQGVS | VIYADGKRAAYVDNVK | GYSTGFIDV [En_Gibbs]: nd (0 of 6 replicates; controls 0 of 18)
- GFDLDEYGIS | VIYADGMRTAYVDSVK | GNVAGTFDV [En_Gen]: 540 pM (6 of 6 replicates; controls 0 of 18)
- GFDLNEYGIS | VIYADGMRTQYIDSVK | GNEAGTFDD [En_HC]: nd (0 of 6 replicates; controls 1 of 18)
- GFDLDEYGIS | VIYADGQRTAYADSVK | GEVAGTFDQ [En_Gen]: 560 pM (6 of 6 replicates; controls 0 of 18)
- GFDLNEYGIS | VIYADGKRTYYADSVK | GEVAGTFDL [En_Gen]: 730 pM (6 of 6 replicates; controls 0 of 18)
- EFEIQDYGIS | VIYADGSRTAYAESVK | GNMGGTFST [En_Gibbs]: nd (0 of 6 replicates; controls 0 of 18)
- GFDLNEYGIS | VIYADGRRTAYSDSVK | GTNAGTFDL [En_HC]: 520 pM (6 of 6 replicates; controls 0 of 18)
- GFDLDEYGIS | VIYADGMRTAYSDDVK | GNNAGTFDV [En_Gen]: 3.8 nM (6 of 6 replicates; controls 1 of 18)
- GFDLEDYGIS | VIYADGRRTFYSDSVK | GETAGTFDS [En_HC]: 330 pM (6 of 6 replicates; controls 0 of 18)
- GFNLDEYGIS | VIYADGLRRQYVDDVK | GSHADMFNM [En_Gibbs]: nd (0 of 6 replicates; controls 0 of 18)
- GFDLNEYGIS | VIYADGRRTFYADSVK | GNNAGTFDA [En_HC]: 1.3 nM (6 of 6 replicates; controls 0 of 18)
- GFDLNEYGIS | VIYADGRRTAYSDSVK | GQLAGTFDT [En_HC]: 260 pM (6 of 6 replicates; controls 0 of 18)
- GFDLNEYGIS | VIYADGRRTAYIDSVK | GENAGTFDL [En_HC]: 1.9 nM (5 of 6 replicates; controls 0 of 18)
- GFDLNEYGIS | VIYADGMRTAYADKVK | GNQAGTFDV [En_Gen]: 230 pM (6 of 6 replicates; controls 0 of 18)
- GFDLNEYGIS | VIYADGKRTAYADTVK | GENAGTFDV [En_Gen]: 16 nM (2 of 6 replicates; controls 0 of 18)
- GFEIEEYGIS | VIYADGQRKSYINSVK | GQVNVTGMY [En_Gibbs]: nd (0 of 6 replicates; controls 0 of 18)
- GFDLNEYGIS | VIYADGKRTAYTDSVK | GEVAGTFDI [En_Gen]: 770 pM (6 of 6 replicates; controls 0 of 18)
- GFDLDEYGIS | VIYADGVRTAYVDSVK | GNVAGTFDL [En_Gen]: 310 pM (6 of 6 replicates; controls 0 of 18)
- GFTLNHYGIS | VIYSCGRRTFYDDLVK | GELARTFDS [Rand]: nd (0 of 6 replicates; controls 0 of 18)
- GFDLNEYGIS | VIYADGVRTAYADDVK | GQNAGTFDM [En_Gen]: 370 pM (6 of 6 replicates; controls 3 of 18)
- GFDLNEYGIS | VIYADGRRTFYTDSVK | GNTAGTFDV [En_HC]: 260 pM (6 of 6 replicates; controls 0 of 18)
- GFDLNEYGIS | VIYADGMRTAYADSVK | GENAGTFDQ [En_Gen]: 59 nM (1 of 6 replicates; controls 0 of 18)
- GFDLEDYGIS | VIYADGMRTAYSDSVK | GETAGTFDV [En_Gen]: 590 pM (6 of 6 replicates; controls 0 of 18)
- GFDLNEYGIS | VIYADGMRTSYIDSVK | GNAAGTFDS [En_HC]: 460 pM (6 of 6 replicates; controls 0 of 18)
- GFDLNEYGIS | VIYADGMRTAYIDSVK | GNQAGTFDM [En_Gen]: 450 pM (6 of 6 replicates; controls 0 of 18)
- GFNLDECGIS | VIYADGKRSAYANKVK | GETGSFFST [En_Gibbs]: nd (0 of 6 replicates; controls 1 of 18)
- GFDLNEYGIS | VIYADGRRTFYSDSVK | GQIAGTFTL [En_HC]: 530 pM (6 of 6 replicates; controls 0 of 18)
- GFDLNEYGIS | VIYADGMRTSYADSVK | GNVAGTFDL [En_Gen]: 250 pM (6 of 6 replicates; controls 0 of 18)
- GFGLMDYGIS | VIYADGMRRSYANSVK | GKHAGTFDF [En_Gibbs]: 3.2 nM (6 of 6 replicates; controls 0 of 18)
- GFDIKEYGIS | VIYADGVRTHYADDVK | GKHTGTNMA [En_Gibbs]: 110 nM (6 of 6 replicates; controls 0 of 18)
- GFDLEEYGIS | VIYADGMRTAYADSVK | GNNAGTFDV [En_Gen]: 440 pM (6 of 6 replicates; controls 0 of 18)
- GFDLNEYGIS | VIYADGRRTFYADSVK | GNHAGTFDV [En_HC]: 510 pM (6 of 6 replicates; controls 1 of 18)
- GFDLDEYGIS | VIYADGVRTAYTDSVK | GNQAGTFDV [En_Gen]: 310 pM (6 of 6 replicates; controls 1 of 18)
- GFDINEYGIS | VVYADGMRQAYIENFK | GTLSGTFDA [En_Gibbs]: nd (0 of 6 replicates; controls 0 of 18)
- GFDLNEYGIS | VIYADGVRTVYSDSVK | GNVAGTFDS [En_HC]: 300 pM (6 of 6 replicates; controls 1 of 18)
- GFNLNEYGIS | VIYADGRRTFYADSVK | GEIAGTFIQ [En_HC]: 1.0 nM (6 of 6 replicates; controls 2 of 18)
- GFDLDEYGIS | VIYADGQRTYYADSVK | GNVAGTFDV [En_Gen]: 160 pM (6 of 6 replicates; controls 1 of 18)
- GFDLNEYGIS | VIYADGVRTAYIDSVK | GQNAGTFDV [En_Gen]: 530 pM (6 of 6 replicates; controls 0 of 18)
- GFDLNEYGYS | VIYSDGRRTAYGDEVK | GRAAGTINS [Ctrl]: 16 nM (6 of 6 replicates; controls 0 of 18)
- GFDLNEYGIS | VIYADGRRTFYVDSVK | GVNAGTFDD [En_HC]: 75 nM (5 of 6 replicates; controls 0 of 18)
- GFDLDEYGIS | VIYADGRRTFYADSVK | GTNAGTFLI [En_HC]: nd (0 of 6 replicates; controls 0 of 18)
- GFDLNEYGIS | VIYADGQRTAYADSVK | GSNAGTFDI [En_Gen]: 660 pM (6 of 6 replicates; controls 0 of 18)
- GFDLNEYGIS | VIYADGRRTQYIDSVK | GEQAGTFDY [En_HC]: 80 pM (6 of 6 replicates; controls 0 of 18)
- GFDLNEYGIS | VIYADGVRTAYQNQVK | GNIDGSFTF [En_Gibbs]: nd (0 of 6 replicates; controls 0 of 18)
- GFDLNEYGIS | VIYADGKRTAYSDSVK | GNNAGTFDT [En_Gen]: 490 pM (6 of 6 replicates; controls 0 of 18)
- GFDLDEYGIS | VIYADGMRTAYADSVK | GANAGTFDM [En_Gen]: 830 pM (6 of 6 replicates; controls 3 of 18)
- GFDLNEYGIS | VIYADGMRTAYADSVK | GENAGTFVL [En_Gen]: 26 nM (6 of 6 replicates; controls 1 of 18)
- GFNLEDYGIS | VIYADGRRTFYVDSVK | GQVAGTFDV [En_HC]: 310 pM (6 of 6 replicates; controls 3 of 18)
- GFDLNEYGIS | VIYADGMRTAYSDDVK | GNVAGTFDL [En_Gen]: 610 pM (6 of 6 replicates; controls 0 of 18)

Picked from the list: the 5 lowest averages where every replicate gave a value.

{"CDR-H1": "GFDLNEYGIS", "CDR-H2": "VIYADGRRTQYIDSVK", "CDR-H3": "GEQAGTFDY", "group": "En_HC", "apparent Kd": "80 pM", "detected": "6/6", "control signals": "0/18"}
{"CDR-H1": "GFDLDEYGIS", "CDR-H2": "VIYADGQRTYYADSVK", "CDR-H3": "GNVAGTFDV", "group": "En_Gen", "apparent Kd": "160 pM", "detected": "6/6", "control signals": "1/18"}
{"CDR-H1": "GFDLNEYGIS", "CDR-H2": "VIYADGMRTAYADKVK", "CDR-H3": "GNQAGTFDV", "group": "En_Gen", "apparent Kd": "230 pM", "detected": "6/6", "control signals": "0/18"}
{"CDR-H1": "GFDLNEYGIS", "CDR-H2": "VIYADGMRTSYADSVK", "CDR-H3": "GNVAGTFDL", "group": "En_Gen", "apparent Kd": "250 pM", "detected": "6/6", "control signals": "0/18"}
{"CDR-H1": "GFDLNEYGIS", "CDR-H2": "VIYADGRRTFYTDSVK", "CDR-H3": "GNTAGTFDV", "group": "En_HC", "apparent Kd": "260 pM", "detected": "6/6", "control signals": "0/18"}

Source: Li et al. 2023 (doi:10.1038/s41467-023-39022-2), MIT Lincoln Laboratory and A-Alpha Bio; data file from the FLAb repository.